ChEMBL document CHEMBL3393060, “Inhibitors of c-Jun N-terminal kinases: an update” (J Med Chem, 2015)

Protein sequences, listed by entry. Tags and fused reporters are not part of them. Lines headed by an entry give the natural chain unless they say otherwise; changes in a name come on top.
UniProt P53779: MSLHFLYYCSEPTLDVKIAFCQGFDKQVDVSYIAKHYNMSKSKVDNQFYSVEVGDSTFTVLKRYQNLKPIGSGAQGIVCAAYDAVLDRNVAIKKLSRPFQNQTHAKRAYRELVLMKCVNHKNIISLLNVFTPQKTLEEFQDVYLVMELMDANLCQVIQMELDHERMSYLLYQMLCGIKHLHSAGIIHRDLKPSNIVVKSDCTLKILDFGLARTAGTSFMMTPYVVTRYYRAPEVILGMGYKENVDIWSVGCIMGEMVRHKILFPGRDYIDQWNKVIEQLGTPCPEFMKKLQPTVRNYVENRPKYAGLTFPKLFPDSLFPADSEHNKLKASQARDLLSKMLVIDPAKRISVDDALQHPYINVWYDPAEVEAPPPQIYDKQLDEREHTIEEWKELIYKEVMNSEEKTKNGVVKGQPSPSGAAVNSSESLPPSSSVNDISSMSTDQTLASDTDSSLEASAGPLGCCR
UniProt P45984: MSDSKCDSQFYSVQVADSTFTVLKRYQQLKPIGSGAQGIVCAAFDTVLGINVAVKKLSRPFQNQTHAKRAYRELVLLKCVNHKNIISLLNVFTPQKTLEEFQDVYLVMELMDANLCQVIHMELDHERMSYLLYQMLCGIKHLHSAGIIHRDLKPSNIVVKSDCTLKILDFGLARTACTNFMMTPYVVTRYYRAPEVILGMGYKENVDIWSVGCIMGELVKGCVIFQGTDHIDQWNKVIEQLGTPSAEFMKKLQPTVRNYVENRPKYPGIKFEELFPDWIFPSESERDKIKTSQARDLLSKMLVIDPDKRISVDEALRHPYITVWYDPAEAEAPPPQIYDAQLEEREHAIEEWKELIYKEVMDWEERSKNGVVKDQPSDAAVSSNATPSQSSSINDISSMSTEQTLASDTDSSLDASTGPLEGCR
UniProt P45983: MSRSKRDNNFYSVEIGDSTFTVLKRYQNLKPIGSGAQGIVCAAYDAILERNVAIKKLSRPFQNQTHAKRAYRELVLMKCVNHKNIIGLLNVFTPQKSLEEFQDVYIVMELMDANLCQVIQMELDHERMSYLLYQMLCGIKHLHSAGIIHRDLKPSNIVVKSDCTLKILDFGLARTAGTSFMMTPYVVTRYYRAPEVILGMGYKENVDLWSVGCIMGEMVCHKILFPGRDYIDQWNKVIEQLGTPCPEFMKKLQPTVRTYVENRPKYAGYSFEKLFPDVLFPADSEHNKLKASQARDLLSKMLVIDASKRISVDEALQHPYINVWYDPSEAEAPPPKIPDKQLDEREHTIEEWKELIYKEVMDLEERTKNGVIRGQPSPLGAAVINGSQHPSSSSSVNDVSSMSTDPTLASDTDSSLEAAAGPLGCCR

Key:
[1] = target: T1, Mitogen-activated protein kinase 10 (Homo sapiens, UniProt P53779); test: Inhibition of JNK3 (unknown origin) after 1 hr incubation
[2] = target: T1, Mitogen-activated protein kinase 10; test: Inhibition of JNK3-mediated c-jun phosphorylation in human HeLa cells after 1 hr incubation; format: cell-based
[3] = target: T1, Mitogen-activated protein kinase 10; test: Inhibition of JNK3-mediated c-jun phosphorylation in human A375 cells after 1 hr incubation; format: cell-based, A-375
[4] = target: Mitogen-activated protein kinase 9 (Homo sapiens, UniProt P45984); test: Inhibition of JNK2 (unknown origin)
[5] = target: Mitogen-activated protein kinase 8 (Homo sapiens, UniProt P45983); test: Inhibition of JNK1 (unknown origin)

SMILES	IC50 [1] [nM]	IC50 [2] [nM]	IC50 [3] [nM]	Kd [4] [nM]	Kd [5] [nM]
Cc1cc(NC(=O)c2cccc(NC(=O)/C=C/CN(C)C)c2)ccc1Nc1nccc(-c2cccnc2)n1	1	486	338	–	–
O/N=C1/c2ccccc2-c2nc3ccccc3nc21	–	–	–	360	240
